For the data set the following is noted: after precipitate formed; pH about 10.5; expressed as H4-o,o-HBED. As for the experimental part: (§1) Phenol was extracted from the reaction mixture with methyl isobutyl ketone (250 ml and 3 times 125 ml).
as §1
(§2) Phenol was extracted from the reaction mixture with methyl isobutyl ketone (75 ml and 3 times 50 ml).
(§3) Phenol was extracted from the reaction mixture with methyl isobutyl ketone (100 ml and 3 times 50 ml).
as §3, §2
Phenol was extracted from the reaction mixture with methyl isobutyl ketone (85 ml and 3 times 50 ml).
as §2

The source of these data is US10472320B2, “Process to prepare phenolic ethylenediamine diacetic acid compounds” (Akzo Nobel Chemicals International B.V., priority 2015, dated 2019).

SMILES strings stand for the structures.

Regarding `O=C(O)CN(CCN(CC(=O)O)Cc1ccccc1O)Cc1ccccc1O` [Comparative Example 1, N,N′-di(2-hydroxybenzyl)ethylenediamine-N,N′-diacetic acid, reference compound], the “remaining concentration of o,o-HBED in solution” value is given as “approximately 6.1%”.
